Laboratory results: article PMC6030209, “Structure-Activity Investigations and Optimisations of Non-metabolite Agonists for the Succinate Receptor 1” (Scientific Reports, 2018)

Sequences of proteins named here, by UniProt entry; tags and fusion partners are left off.
UniProt Q9BXA5, whole entry: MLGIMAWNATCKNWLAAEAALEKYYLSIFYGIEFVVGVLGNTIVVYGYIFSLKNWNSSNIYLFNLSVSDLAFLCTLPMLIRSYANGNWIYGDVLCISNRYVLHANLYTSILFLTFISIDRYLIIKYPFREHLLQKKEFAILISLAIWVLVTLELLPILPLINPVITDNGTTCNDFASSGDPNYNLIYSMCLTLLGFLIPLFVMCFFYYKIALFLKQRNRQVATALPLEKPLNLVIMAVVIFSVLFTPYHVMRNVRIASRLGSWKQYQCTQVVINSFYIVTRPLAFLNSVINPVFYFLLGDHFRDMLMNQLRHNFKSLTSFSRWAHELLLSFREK
UniProt Q99MT6, whole entry: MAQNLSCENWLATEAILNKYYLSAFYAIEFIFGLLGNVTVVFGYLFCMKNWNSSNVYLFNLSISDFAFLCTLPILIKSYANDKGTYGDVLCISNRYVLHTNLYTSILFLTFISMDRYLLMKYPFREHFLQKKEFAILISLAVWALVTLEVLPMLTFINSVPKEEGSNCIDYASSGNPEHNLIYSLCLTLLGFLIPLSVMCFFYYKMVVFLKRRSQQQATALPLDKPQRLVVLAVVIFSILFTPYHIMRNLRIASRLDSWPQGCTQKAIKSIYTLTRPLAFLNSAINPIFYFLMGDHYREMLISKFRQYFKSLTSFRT

How the values were obtained:
[1] = after 70 hours in 10 mM PBS7.4, 37 °C
SUCNR1 = test: Active/inactive grouping by EC50 threshold (ALiBERO training set, Table S1); assay type: cell-based; details: active (1) / inactive (0), EC50 threshold of 10 µM
[2] = 10 mM PBS7.4, 25 °C, 24 h
[3] = 2 hours, 37 °C
[4] = 1 hour, 1 μM, 0.5 mg/mL microsomes
hSUCNR1 = hSUCNR1 (Homo sapiens, UniProt Q9BXA5); test: IP3 turnover assay in hSUCNR1 transfected HEK-293 cells; assay type: cell-based
mSUCNR1 = mSUCNR1 (Mus musculus, UniProt Q99MT6); test: IP3 turnover assay in mSUCNR1 transfected HEK-293 cells; assay type: cell-based
[5] = dose-response curves of induction of IP3 turnover in SUCNR1 transfected HEK cells (N = 3)
[6] = efficacy relative to succinate (100%), IP3 turnover, HEK cells (N = 3)

O=C(O)C[C@H](NC(=O)c1ccc(-c2ccc(F)cc2)o1)C(=O)O
chemical stability [1]: > 98%
Active (SUCNR1): 1 (active (1))
kinetic solubility [2]: > 200 µM
stability in FaSSGF ([3]; simulated gastrointestinal fluid FaSSGF): stable
stability in FaSSIF ([3]; simulated gastrointestinal fluid FaSSIF): stable
stability in FeSSIF ([3]; simulated gastrointestinal fluid FeSSIF): stable
stability in mouse liver microsomes [4]: stable
hSUCNR1 pEC50 (hSUCNR1; [5]): 5.75 ± 0.08
type of agonism (hSUCNR1; dose-response curves on hSUCNR1 and mSUCNR1 compared with succinate): partial agonists
hSUCNR1 efficacy, % (hSUCNR1; [6]): 72.8 ± 2.6%
mSUCNR1 pEC50 (mSUCNR1; [5]): 6.46 ± 0.06
mSUCNR1 efficacy, % (mSUCNR1; [6]): 79.3 ± 1.6%
